Screening data: PubChem BioAssay, Broad Institute
Only some compounds are listed: those with a hit (about 1.9% of all), similar ones and a draw of the others.
ARNT TACC3 PPI = ARNT/TACC3 interaction disruption; AlphaScreen His-ARNT PAS-B/GST-TACC3 binding, luminescence; TACC3 fragment carries E629A point mutation; inhibition, % at 9.99 µM; Q9Y6A5; AID 623870; 390,000 compounds, 0.66% hits;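 active = mean inhibition of replicates at least 50% and at least half of replicates each reaching 50%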
Yeast UUG start = alters start codon recognition fidelity in yeast; AID 602363; activity score, % at 18.7 µM; 350,000 tested, 0.13% active; S. cerevisiae UUG-firefly luciferase reporter, luminescence/redox ratio;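 active means replicate mean at a twofold rise or more, about +100% in these data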;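 further: firefly luciferase made from a UUG start codon reports start codon fidelity; reporter light over untreated wells divided by growth signal over untreated wells; some hits fall short of that in this replicate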
ERp5 block = blocks human ERp5 reductase activity on insulin; Q15084; ERp5 insulin aggregation, absorbance 650 nm, 90 min; inhibition, % at 9.99 µM; 350,000 compounds, 0.05% hits;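 active = mean replicate inhibition above about 25%, with every replicate also reaching it, limit read from the data, passing the limit was not always enough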
PDI turbidity = inhibitors of human protein disulfide isomerase. PDI insulin aggregation turbidity, A650, 90 min. P07237. 350,000 compounds, 0.052% hits. inhibition, % at 10 µM;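 active = mean inhibition across replicates of 30% or more, whatever share of single replicates reach that level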
PglD inh = inhibitors of Campylobacter jejuni PglD acetyltransferase. inhibition, % at 12.5 µM. 360,000 compounds, 0.098% hits. purified PglD enzyme, DTNB colorimetric CoA detection; in the data active = inhibition above about 16%, passing the limit was not always enough
FGF22 binding = FGF22 (human) thermal shift binding; 340,000 compounds, 1.5% hits; AID 651658; activity (Tm shift, normalised), % at 9.99 µM; recombinant FGF22 thermal shift, SYPRO orange fluorescence; percent of sucrose octasulfate shift, DMSO zero;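 active = mean Tm shift, scaled 0 neutral to 100 positive control, at about 1.3% or above, every replicate too, limit read from the data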
AlphaScreen ctr = AlphaScreen artifact in ARNT/TACC3 counter-screen. shares compounds with ARNT TACC3 PPI. His-ARNT PASB-GST AlphaScreen artifact counter-screen, luminescence. AC50, µM (titrated, usually from 68 µM). 1,200 compounds, 50% hits;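 active = every separate test run was called active for a drop in luminescence, with AC50 within twice the top valid dose, actives reach about 71 µM in these data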
A number is an active result; n = inactive; x = no result given.

SMILES | ARNT TACC3 PPI | Yeast UUG start | ERp5 block | PDI turbidity | PglD inh | FGF22 binding | AlphaScreen ctr
CN1CCN(CC(=O)Nc2ccccc2[N+](=O)[O-])CC1 | n | n | x | n | n | x | x
C[C@H]1CN([C@@H](C)CO)S(=O)(=O)c2ccc(C#CC3CC3)cc2O[C@@H]1CN(C)CC1CCOCC1 | n | n | n | x | n | n | x
Oc1c(C(c2ccc(Cl)cc2)N2CCCC2)cc(Cl)c2cccnc12 (centres undefined) | 55 | x | n | n | x | n | 6.5µM
CCCCC(=O)NC(c1ccccc1Cl)c1ccc2cccnc2c1O (centres undefined) | n | n | n | n | n | n | x
Oc1c(C(c2ccccc2Cl)N2CCCC2)ccc2cccnc12 (centres undefined) | 74 | x | n | n | x | n | 8.4µM
CN1CCN(C(c2ccccn2)c2cc(Cl)c3cccnc3c2O)CC1 (centres undefined) | 52 | x | n | n | x | n | 21µM
Cc1ccc(C(c2cc(Cl)c3cccnc3c2O)N2CCN(C)CC2)cc1 (centres undefined) | x | n | x | n | n | x | x
Oc1c(C(c2ccccn2)N2CCC(Cc3ccccc3)CC2)cc(Cl)c2cccnc12 (centres undefined) | x | x | n | x | x | n | x
CC(C)NC(=O)N1CC[C@@H]2[C@H]1c1cc(Br)ccc1N(C)[C@@H]2CO | n | n | n | x | n | n | x
C[C@H](CO)N1C[C@H](C)[C@H](CN(C)S(=O)(=O)c2cccs2)Oc2c(NC(=O)Nc3cccc4ccccc34)cccc2C1=O | n | n | n | x | n | n | x
COc1c(O)cccc1/C=N/NC(=O)Cn1ccnc1C | 61 | n | n | n | n | n | n
COc1cccc(/C=N/NC(=O)Cn2ccnc2C)c1 | x | x | n | n | x | n | x
Oc1cc(NCCN2CCOCC2)cc2cccnc12 | 59 | n | n | n | n | n | 11µM
Cc1cccc(CSc2[nH]c(=O)ncc2C)c1 | n | n | n | n | n | n | x
COc1ccc(NC(=O)CSc2cccc3cccnc23)c(OC)c1 | n | n | n | n | n | n | x
CCCCCOc1ccc(NC(=O)CSc2cccc3cccnc23)cc1 | 58 | x | n | n | x | n | 63µM
CCOC(=O)CSc1cccc2cccnc12 | 57 | n | x | n | n | x | 9.3µM
Cc1cccc(CSc2cccc3cccnc23)c1 | 62 | n | x | n | n | x | 13µM
O=C(CSc1cccc2cccnc12)Nc1ccc(S(=O)(=O)N2CCOCC2)cc1 | 74 | n | n | n | n | n | 33µM
C/C=C/c1ccc2c(c1)O[C@H](CN(C)Cc1ccccn1)[C@H](C)CN([C@H](C)CO)S2(=O)=O | n | n | n | x | n | n | x
Cc1noc(C)c1NC(=O)N(C)C[C@H]1Oc2c(NC(=O)NC3CCCCC3)cccc2C(=O)N([C@@H](C)CO)C[C@H]1C | n | n | n | x | n | n | x
C[C@H](CO)N1C[C@H](C)[C@H](CN(C)C(=O)Nc2cccc3ccccc23)Oc2ccc(NC(=O)Cn3cnnn3)cc2CC1=O | n | n | x | x | n | n | x
C[C@H](CO)N1C[C@H](C)[C@@H](CN(C)Cc2ccncc2)Oc2cc(C3=CCCCC3)ccc2S1(=O)=O | n | n | n | x | n | n | x
C[C@H](CO)N1C[C@H](C)[C@H](CN(C)Cc2cccnc2)Oc2ncc(/C=C/c3ccccc3)cc2C1=O | n | n | n | x | n | n | x
Cc1ccccc1-c1ccc([C@H]2[C@@H](CO)N3CCCCN(C(=O)c4cccnc4)C[C@@H]23)cc1 | n | n | n | x | n | n | x
SMILES | ARNT TACC3 PPI | Yeast UUG start | ERp5 block | PDI turbidity | PglD inh | FGF22 binding | AlphaScreen ctr
CCC(C)c1c(N)n(S(=O)(=O)c2ccc(C)cc2)oc1=O (centres undefined) | 61 | n | n | n | n | n | 35µM
N#Cc1cccc(-c2ccc3c(c2)[C@@H]2[C@@H](CCN2S(=O)(=O)c2ccccc2F)[C@@H](CO)N3)c1 | n | n | n | x | n | n | x
C[C@@H]1CCCCO[C@@H](CN(C)Cc2ccncc2)[C@@H](C)CN([C@@H](C)CO)C(=O)c2cc(NS(=O)(=O)c3cn(C)cn3)ccc2O1 | n | n | n | x | n | n | x
CCOC(=O)CC(NC(=O)Cc1ccc(F)cc1)c1ccccc1Cl (centres undefined) | 22 | x | n | n | x | n | n
C[C@@H]1CN([C@H](C)CO)C(=O)c2cccc(NC(=O)Nc3ccc(F)cc3)c2O[C@@H]1CN(C)Cc1ccncc1 | x | n | n | x | n | n | x
O=c1[nH]c2ccccc2c(O)c1SCCO | x | x | n | n | x | n | x
O=C(O)CSc1c(O)c2ccccc2[nH]c1=O | 60 | x | n | n | x | n | n
O=C(NNc1ccccn1)C(=O)NNS(=O)(=O)c1ccc(Cl)cc1 | 58 | n | x | n | n | x | n
O=C(NC[C@@H]1[C@H](c2ccccc2)[C@H](CO)N1Cc1ccccn1)C1CC1 | 46 | n | n | x | n | n | n
C/C=C/c1ccc([C@H]2[C@@H](CNC(=O)CC)N(Cc3ccccn3)[C@H]2CO)cc1 | 47 | n | x | x | n | x | n
C/C=C/c1ccc([C@H]2[C@@H](CO)N(Cc3ccccn3)[C@H]2CNC(C)=O)cc1 | 30 | n | n | x | n | n | n
O=C(C[C@@H]1C=C[C@H](NC(=O)Nc2ccc(C(F)(F)F)cc2)[C@@H](CO)O1)NCCN1CCCC1 | n | n | n | x | n | n | x
C[C@@H]1CN([C@@H](C)CO)C(=O)c2cc(-c3cccnc3)cnc2O[C@H]1CN(C)C(=O)Cc1cccnc1 | n | n | n | x | n | n | x
Cc1[nH]n2c(=O)c3c(nc2c1-c1ccc(Cl)cc1)CCC3 | n | n | x | n | n | x | x
Cc1[nH]n2c(=O)c3c(nc2c1-c1ccccc1)CCC3 | 59 | n | x | n | n | x | n
C[C@H](CO)N1C[C@H](C)[C@@H](CN(C)C(=O)Nc2ccc3c(c2)OCO3)Oc2ccc(NC(=O)C3CCCCC3)cc2CC1=O | n | n | n | x | n | n | x
C[C@@H]1CN([C@H](C)CO)C(=O)c2cc(NC(=O)Nc3ccc(C(F)(F)F)cc3)ccc2O[C@@H](C)CCCCO[C@H]1CN(C)Cc1ccc2c(c1)OCO2 | 68 | n | n | x | n | n | 53µM
C[C@@H]1CCCCO[C@H](CN(C)Cc2ccncc2)[C@H](C)CN([C@H](C)CO)C(=O)c2cc(NC(=O)C3CCCCC3)ccc2O1 | 62 | n | n | x | n | n | n
C[C@@H]1CCCCO[C@@H](CN(C)C(=O)Nc2ccc3c(c2)OCO3)[C@@H](C)CN([C@@H](C)CO)C(=O)c2cc(N(C)C)ccc2O1 | 54 | n | n | x | n | x | n
C[C@H]1CCCCO[C@@H](CN(C)Cc2ccc3c(c2)OCO3)[C@@H](C)CN([C@@H](C)CO)C(=O)c2cc(N(C)C)ccc2O1 | n | n | n | x | n | n | x
